Experiments:
H460 cells [1] = assay: alamarBlue cell viability assay; type: cell-based, human; conditions: H460, 72 h
AsPC-1 cells = assay: alamarBlue cell viability assay; type: cell-based, human; conditions: AsPC-1, 48 h
H460 cells [2] = assay: Extracellular acidification (pH) assay; type: cell-based, human
MDA-MB-231 cells = assay: alamarBlue cell viability assay; type: cell-based, human; conditions: MDA-MB-231, 72 h
HeLa cells = assay: alamarBlue cell viability assay; type: cell-based, human; conditions: 72 h
CA IX = biological target: T1, CA IX (Homo sapiens, UniProt Q16790); assay: Fluorescent thermal shift assay (FTSA); type: binding; conditions: from FTSA Kds
T1 construct: 12 recombinant catalytic domains of human active CA isoforms as determined by FTSA
Protocol: The binding affinity of synthesized compounds to recombinant human CAs was measured by the fluorescent thermal shift assay (FTSA) where the thermal stabilization of the protein by the compound was determined by following the fluorescence dependence on temperature at various added compound concentrations. The melting temperature (Tm) of CA was measured using the Corbett Rotor-Gene 6000 instrument (QIAGEN Rotor-Gene Q, excitation at 365 ± 20 nm, emission detection at 460 ± 15 nm). The protein was heated from 25 to 99° C at a rate of 1° C/min and the fluorescence change of the solvatochromic dye 8-anilino-1-naphthalene sulfonate (ANS) was followed. The samples consisted of 5–10 μM CA, 0–200 μM ligand, 50 μM ANS, and 50 mM sodium phosphate buffer containing 100 mM NaCl at pH 7.0, with the final DMSO concentration of 2% (v/v). Protein unfolding profiles and the melting temperatures were determined at each ligand concentration while recording extrinsic fluorescence of ANS. Data analysis was performed as previously described. All experiments were repeated at least twice.

A549 cells = assay: alamarBlue cell viability assay; type: cell-based, human; conditions: A549, 72 h

## NS(=O)(=O)c1c(F)c(F)c(SCCc2ccc(C(=O)O)cc2)c(F)c1NC1CCCCCCCCCCC1 [VR16-09, 4-(2-{[4-(Aminosulfonyl)-3-(cyclododecylamino)-2,5,6-tetrafluorophenyl]thio}ethyl)benzoic acid]
H460 cells [1]
  Cytotoxic ratio (CR) of selectivity to hypoxia: 0.49 ± 0.04
AsPC-1 cells
  Cytotoxic ratio (CR) of selectivity to hypoxia: 0.96 ± 0.12
H460 cells [2]
  functional effect on reduction of hypoxia-induced acidification, relative to VR16-10: ~ 3 fold
MDA-MB-231 cells
  Cytotoxic ratio (CR) of selectivity to hypoxia: 0.88 ± 0.03
HeLa cells
  Cytotoxic ratio (CR) of selectivity to hypoxia: 0.46 ± 0.06
CA IX
  selectivity for CA IX over CA I and CA II: more than one million-fold
A549 cells
  Cytotoxic ratio (CR) of selectivity to hypoxia: 0.22 ± 0.02

— article PMC6003569, “Novel fluorinated carbonic anhydrase IX inhibitors reduce hypoxia-induced acidification and clonogenic survival of cancer cells” (Oncotarget, 2018)
